The text below walks through data of ChEMBL document CHEMBL1149707, “Structure-activity relationship studies of carboxamido-biaryl ethers as opioid receptor antagonists (OpRAs). Part 1” (Bioorg Med Chem Lett, 2007).

Protein sequences, listed by entry. Tags and fused reporters are not part of them. Lines headed by an entry give the natural chain unless they say otherwise; changes in a name come on top.
UniProt P41145: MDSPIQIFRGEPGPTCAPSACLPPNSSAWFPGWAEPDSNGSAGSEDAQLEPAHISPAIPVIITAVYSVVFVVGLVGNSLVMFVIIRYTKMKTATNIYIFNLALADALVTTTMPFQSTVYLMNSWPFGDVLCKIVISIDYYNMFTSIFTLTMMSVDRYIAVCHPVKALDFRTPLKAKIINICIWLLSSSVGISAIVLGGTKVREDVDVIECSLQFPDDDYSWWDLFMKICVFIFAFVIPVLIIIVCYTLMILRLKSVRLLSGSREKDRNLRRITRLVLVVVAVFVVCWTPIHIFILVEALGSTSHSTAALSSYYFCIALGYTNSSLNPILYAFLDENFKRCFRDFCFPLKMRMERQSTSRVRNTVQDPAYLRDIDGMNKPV

The target of experiment [1] is T1, Kappa-type opioid receptor (Homo sapiens, UniProt P41145). Description: Displacement of [3H]diprenorphine from human kappa opioid receptor expressed in CHO cells in presence of high sodium by SPA. It is filed as cell-based.
For experiment [2], the target named is T1, Kappa-type opioid receptor. Put plainly: Antagonist activity at human kappa opioid receptor expressed in CHO cells by [35S]GTP-gamma-S binding assay. It is filed as functional, cell-based. A general note: GTPγS is a poorly hydrolysed GTP analogue; its binding reports G protein activation.

Regarding `NC(=O)c1ccc(Oc2ccc(CNCCc3ccccc3)cc2)nc1`, the figures for the inhibition constant Ki in experiment [1] and in experiment [2] were 8.38 nM and 1.15 nM, respectively.

For orientation: Ki means the equilibrium dissociation constant of an inhibitor or competing ligand from its target.
